This is an account of results in ChEMBL document CHEMBL6114981, “Research progress of flavonoids targeting estrogen receptor in the treatment of breast cancer” (Bioorg Med Chem, 2025).

The chains behind the UniProt entries cited, without tags or fusion partners.
UniProt P03372, whole entry: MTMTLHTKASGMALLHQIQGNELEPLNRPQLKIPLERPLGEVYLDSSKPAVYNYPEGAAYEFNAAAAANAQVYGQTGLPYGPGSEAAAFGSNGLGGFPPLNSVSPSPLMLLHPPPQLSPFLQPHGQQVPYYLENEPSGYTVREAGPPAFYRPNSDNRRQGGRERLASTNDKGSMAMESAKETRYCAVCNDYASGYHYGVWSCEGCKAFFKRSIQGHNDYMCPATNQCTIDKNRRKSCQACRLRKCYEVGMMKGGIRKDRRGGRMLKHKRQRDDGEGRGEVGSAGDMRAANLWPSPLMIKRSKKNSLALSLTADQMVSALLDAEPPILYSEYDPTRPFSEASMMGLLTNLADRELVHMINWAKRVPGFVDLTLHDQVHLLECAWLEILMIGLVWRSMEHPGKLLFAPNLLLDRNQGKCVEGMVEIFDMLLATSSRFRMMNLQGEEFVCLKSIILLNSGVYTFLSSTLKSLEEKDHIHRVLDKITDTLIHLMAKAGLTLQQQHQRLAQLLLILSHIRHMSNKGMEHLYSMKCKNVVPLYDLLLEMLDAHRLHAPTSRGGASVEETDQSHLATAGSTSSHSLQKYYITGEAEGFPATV

Assay [1] addresses Estrogen receptor (Homo sapiens) (UniProt P03372). The following applies: dose 1.0 µM.
For assay [2] the target is unchanged. Kind of assay: Binding affinity to ERalpha (unknown origin) assessed as relative binding affinity by fluorescence polarization assay relative to control.

As usually defined, the inhibition is the change of the read-out against control, counted positive when it falls. Read a high inhibition as strong suppression. `CC1=C(c2cc(F)cc(F)c2)C(c2ccc(/C=C/CN3CC(CF)C3)cc2)Oc2cc(O)ccc21` (stereo not drawn) registered an inhibition in assay [1] of 41%.
As for `COc1ccc(-c2c(C(=O)c3ccc(OCCN4CCCCC4)cc3)c3ccc(OC)cc3oc2=O)cc1`, the RBA in assay [2] stood at 0.16%.
In the case of `Oc1ccc([C@H]2COc3cc(O)ccc3C2)cc1`, in assay [2], the RBA was found to be 0.1%.
